What was measured:
human glucagon receptor = molecular target: T1, human glucagon receptor (Homo sapiens, UniProt P47871); test: cAMP response in CHO cells expressing glucagon receptor (CHO/GCGR); assay type: cell-based
T1 construct: Using a portion corresponding to the ORF (open reading frame) of cDNA; expressed in transfected cells; host or cells: CHO DG44
Description: The PCR product was cloned into the known animal cell expression vector x0GC/dhfr, thereby constructing the recombinant vector x0GC/GCGR.
(§1) The recombinant vector x0GC/GCGR was introduced into a CHO DG44 cell line, cultured in DMEM/F12 (10% FBS) medium, using lipofectamine (Invitrogene, USA), to obtain a transformant. The transformant was incubated in a selective medium containing 1 mg/mL G418 and 10 nM methotraxate, and monoclonal cell lines were selected therefrom.
(§2) The cultured cells were washed with KRB buffer, suspended in 40 ml of 1 mM IBMX-containing KRB buffer, and then allowed to stand at room temperature for 5 minutes. […] Then, 20 ml of cell lysis buffer was added to lyse the cells, and the concentration of cAMP in each of the cell lysates was measured using a cAMP assay kit (Molecular Device, USA).

Protein sequences, listed by entry. Tags and fused reporters are not part of them. Residues count along the entry.
UniProt P47871, 26-477: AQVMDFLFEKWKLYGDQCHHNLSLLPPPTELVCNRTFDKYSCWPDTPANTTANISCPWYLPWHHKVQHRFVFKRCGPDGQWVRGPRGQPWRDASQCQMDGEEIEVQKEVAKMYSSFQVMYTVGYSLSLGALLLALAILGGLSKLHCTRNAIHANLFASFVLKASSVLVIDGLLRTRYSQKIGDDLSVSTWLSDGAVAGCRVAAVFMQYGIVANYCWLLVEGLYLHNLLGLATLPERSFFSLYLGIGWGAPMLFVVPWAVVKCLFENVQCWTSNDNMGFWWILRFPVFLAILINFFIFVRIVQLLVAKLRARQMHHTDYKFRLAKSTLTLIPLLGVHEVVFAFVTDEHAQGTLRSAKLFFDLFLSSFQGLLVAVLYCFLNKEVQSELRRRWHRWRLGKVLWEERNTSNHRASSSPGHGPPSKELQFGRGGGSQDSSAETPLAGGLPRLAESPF
UniProt P43220, 24-463: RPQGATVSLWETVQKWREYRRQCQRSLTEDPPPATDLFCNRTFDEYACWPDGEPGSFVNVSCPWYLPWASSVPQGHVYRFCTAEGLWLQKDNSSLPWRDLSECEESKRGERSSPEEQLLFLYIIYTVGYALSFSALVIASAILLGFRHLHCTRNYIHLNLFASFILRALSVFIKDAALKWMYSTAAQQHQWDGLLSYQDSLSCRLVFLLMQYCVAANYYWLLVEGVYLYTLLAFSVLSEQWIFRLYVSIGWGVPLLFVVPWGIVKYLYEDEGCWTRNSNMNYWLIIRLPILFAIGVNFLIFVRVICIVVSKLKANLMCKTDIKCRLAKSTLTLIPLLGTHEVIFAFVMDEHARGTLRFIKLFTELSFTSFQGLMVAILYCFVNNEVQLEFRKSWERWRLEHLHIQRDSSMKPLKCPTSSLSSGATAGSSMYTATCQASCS

human GLP-1 receptor = molecular target: T2, human GLP-1 receptor (Homo sapiens, UniProt P43220); test: cAMP response in CHO cells expressing GLP-1 receptor (CHO/GLP-1R); assay type: cell-based
T2 construct: Using a portion corresponding to the ORF (open reading frame) of cDNA; expressed in transfected cells; host or cells: CHO DG44
Description: The PCR product was cloned into the known animal cell expression vector x0GC/dhfr, thereby constructing the recombinant vector x0GC/GLP-1R.
as §1, with “x0GC/GLP-1R” for “x0GC/GCGR”
as §2

CC[C@H](C)[C@H](NC(=O)[C@H](CC(N)=O)NC(=O)[C@H](CC(N)=O)NC(=O)[C@H](CCCNC(=N)N)NC(=O)[C@H](CC(N)=O)NC(=O)[C@H](CCCNC(=N)N)NC(=O)[C@H](CCCCN)NC(=O)[C@@H](NC(=O)[C@H](CC(N)=O)NC(=O)[C@H](CCSC)NC(=O)[C@H](CC(C)C)NC(=O)[C@H](Cc1c[nH]c2ccccc12)NC(=O)[C@H](CCC(=O)O)NC(=O)[C@@H](NC(=O)[C@H](Cc1ccccc1)NC(=O)[C@H](CC(C)C)NC(=O)[C@H](CCCNC(=N)N)NC(=O)[C@@H](NC(=O)[C@H](C)NC(=O)[C@H](CCC(=O)O)NC(=O)[C@H](CCC(=O)O)NC(=O)[C@H](CC(=O)O)NC(=O)[C@H](CC(C)C)NC(=O)[C@H](Cc1ccc(O)cc1)NC(=O)[C@H](CCCCN)NC(=O)[C@H](CO)NC(=O)[C@H](Cc1ccc(O)cc1)NC(=O)[C@H](CC(=O)O)NC(=O)[C@H](CO)NC(=O)[C@@H](NC(=O)[C@H](Cc1ccccc1)NC(=O)[C@@H](NC(=O)CNC(=O)[C@H](CCC(N)=O)NC(=O)[C@H](CO)NC(=O)Cc1c[nH]cn1)[C@@H](C)O)[C@@H](C)O)C(C)C)[C@@H](C)CC)[C@@H](C)O)C(=O)N[C@@H](C)C(=O)O [SEQ ID NO: 2]
EC50 (human glucagon receptor): 0.0128 µM
EC50 (human GLP-1 receptor): 0.0518 µM

CC(C)C[C@H](NC(=O)[C@H](Cc1c[nH]c2ccccc12)NC(=O)[C@H](C)NC(=O)[C@@H](NC(=O)[C@H](Cc1ccccc1)NC(=O)[C@H](CC(=O)O)NC(=O)[C@H](CCC(N)=O)NC(=O)[C@H](C)NC(=O)[C@H](CCCNC(=N)N)NC(=O)[C@H](CCCNC(=N)N)NC(=O)[C@H](CCC(=O)O)NC(=O)[C@H](CC(=O)O)NC(=O)[C@H](CC(C)C)NC(=O)[C@H](Cc1ccc(O)cc1)NC(=O)[C@H](CCCCN)NC(=O)[C@H](CO)NC(=O)[C@H](Cc1ccc(O)cc1)NC(=O)[C@H](CC(=O)O)NC(=O)[C@H](CO)NC(=O)[C@@H](NC(=O)[C@H](Cc1ccccc1)NC(=O)[C@@H](NC(=O)CNC(=O)[C@H](CCC(N)=O)NC(=O)[C@H](CO)NC(=O)Cc1c[nH]cn1)[C@@H](C)O)[C@@H](C)O)C(C)C)C(=O)N[C@@H](CCCCN)C(=O)N[C@@H](CC(N)=O)C(=O)N[C@H](C(=O)NCC(=O)N1CCC[C@H]1C(=O)N[C@@H](CO)C(=O)N[C@@H](CO)C(=O)NCC(=O)N[C@@H](C)C(=O)N1CCC[C@H]1C(=O)N1CCC[C@H]1C(=O)N1CCC[C@H]1C(=O)N[C@@H](CO)C(=O)O)[C@@H](C)O [SEQ ID NO: 3]
EC50 (human glucagon receptor): 0.638 µM
EC50 (human GLP-1 receptor): > 1 µM

CC[C@H](C)[C@H](NC(=O)[C@H](CC(N)=O)NC(=O)[C@H](CC(N)=O)NC(=O)[C@H](CCCNC(=N)N)NC(=O)[C@H](CC(N)=O)NC(=O)[C@H](CCCNC(=N)N)NC(=O)[C@H](CCCCN)NC(=O)[C@@H](NC(=O)[C@H](CC(N)=O)NC(=O)[C@H](CCCNC(=N)N)NC(=O)[C@@H](NC(=O)[C@H](Cc1c[nH]c2ccccc12)NC(=O)[C@H](CCC(=O)O)NC(=O)[C@@H](NC(=O)[C@H](Cc1ccccc1)NC(=O)[C@H](CC(C)C)NC(=O)[C@H](CCCNC(=N)N)NC(=O)[C@@H](NC(=O)[C@H](C)NC(=O)[C@H](CCC(=O)O)NC(=O)[C@H](CCC(=O)O)NC(=O)[C@H](CC(=O)O)NC(=O)[C@H](CC(C)C)NC(=O)[C@H](Cc1ccc(O)cc1)NC(=O)[C@H](CCCNC(=N)N)NC(=O)[C@H](CO)NC(=O)[C@H](Cc1ccc(O)cc1)NC(=O)[C@H](CC(=O)O)NC(=O)[C@H](CO)NC(=O)[C@@H](NC(=O)[C@H](Cc1ccccc1)NC(=O)[C@@H](NC(=O)CNC(=O)[C@H](CCC(N)=O)NC(=O)[C@H](CO)NC(=O)Cc1c[nH]cn1)[C@@H](C)O)[C@@H](C)O)C(C)C)[C@@H](C)CC)[C@@H](C)CC)[C@@H](C)O)C(=O)N[C@@H](C)C(=O)O [SEQ ID NO: 17]
EC50 (human glucagon receptor): > 1 µM
EC50 (human GLP-1 receptor): 0.0979 µM
